Assay results reported in paper PMC11833715, “Identification of a Cannabinoid Receptor 2 Allosteric Site Using Computational Modeling and Pharmacological Analysis” (ACS Pharmacology & Translational Science, 2025).

Sequences of proteins named here, by UniProt entry; tags and fusion partners are left off.
UniProt P34972, whole entry: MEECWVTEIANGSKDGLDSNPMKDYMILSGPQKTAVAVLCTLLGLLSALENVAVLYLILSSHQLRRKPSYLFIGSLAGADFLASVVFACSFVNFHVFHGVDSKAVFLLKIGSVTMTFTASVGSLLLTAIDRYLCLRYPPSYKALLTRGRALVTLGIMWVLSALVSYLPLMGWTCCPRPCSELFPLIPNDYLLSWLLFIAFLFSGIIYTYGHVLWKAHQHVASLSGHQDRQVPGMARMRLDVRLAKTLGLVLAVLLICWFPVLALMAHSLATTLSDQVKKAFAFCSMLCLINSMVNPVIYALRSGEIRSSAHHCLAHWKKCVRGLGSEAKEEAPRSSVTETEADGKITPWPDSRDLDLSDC

Molecular target: T1, WT CB2 (Homo sapiens, UniProt P34972)
T1 construct: expressed in transfected cells; host or cells: HEK293
Assay: pGlo-Sensor-22F cAMP accumulation assay, WT CB2
Assay type: cell-based
Conditions: pEC50/pIC50 values
Description: Compounds were drawn using ChemDraw.

SMILES: C=C(C)[C@@H]1CCC(C)=C[C@H]1c1c(O)cc(CCCCC)cc1O [CBD, Cannabidiol]
- EC50: 2130 nM
